Key:
Assay in all cases: MBP-SSX1 78aa pull-down of HEK293T mononucleosomes, targeted quantitative histone MS, replicate 1
[1] = target: HEK-293T mononucleosomes with histone H3K4me3 (mammalian (HEK-293T cells)) (UniProt P68431)
[2] = target: HEK-293T mononucleosomes with histone H4(4to17)K5ac1K8ac1me0 (mammalian (HEK-293T cells)) (UniProt P62805)
[3] = target: HEK-293T mononucleosomes with histone H4(20to23)K20me3 (mammalian (HEK-293T cells)) (UniProt P62805)
[4] = target: HEK-293T mononucleosomes with histone H4(4to17)K5ac1K8ac1K12ac1K16ac1me0 (mammalian (HEK-293T cells)) (UniProt P62805)
[5] = target: HEK-293T mononucleosomes with histone H3K9me2S10ph1K14ac1 (mammalian (HEK-293T cells)) (UniProt P68431)
[6] = target: HEK-293T mononucleosomes with histone H3K9me2S10ph1K14ac0 (mammalian (HEK-293T cells)) (UniProt P68431)
[7] = target: HEK-293T mononucleosomes with histone H4(4to17)K12ac1K16ac1me0 (mammalian (HEK-293T cells)) (UniProt P62805)
[8] = target: HEK-293T mononucleosomes with histone H4(4to17)K5ac1K8ac1K12ac1me0 (mammalian (HEK-293T cells)) (UniProt P62805)
[9] = target: HEK-293T mononucleosomes with histone H4(4to17)K8ac1K12ac1me0 (mammalian (HEK-293T cells)) (UniProt P62805)
[10] = target: HEK-293T mononucleosomes with histone H3K4me0 (mammalian (HEK-293T cells)) (UniProt P68431)
[11] = target: HEK-293T mononucleosomes with histone H2AZ(1to19)K4ac1 (mammalian (HEK-293T cells)) (UniProt P0C0S5)
[12] = target: HEK-293T mononucleosomes with histone H3K9me1S10ph1K14ac1 (mammalian (HEK-293T cells)) (UniProt P68431)
[13] = target: HEK-293T mononucleosomes with histone H2A(4to11)K5ac1K9ac1 (mammalian (HEK-293T cells)) (UniProt P0C0S8)
[14] = target: HEK-293T mononucleosomes with histone H4(4to17)K5ac1K16ac1me0 (mammalian (HEK-293T cells)) (UniProt P62805)
[15] = target: HEK-293T mononucleosomes with histone H2AZ(1to19)ac0 (mammalian (HEK-293T cells)) (UniProt P0C0S5)
[16] = target: HEK-293T mononucleosomes with histone H4(4to17)K5ac1me0 (mammalian (HEK-293T cells)) (UniProt P62805)
[17] = target: HEK-293T mononucleosomes with histone H4(20to23)K20me0 (mammalian (HEK-293T cells)) (UniProt P62805)
[18] = target: HEK-293T mononucleosomes with histone H4(20to23)K20me1 (mammalian (HEK-293T cells)) (UniProt P62805)
[19] = target: HEK-293T mononucleosomes with histone H4(4to17)K12ac1me0 (mammalian (HEK-293T cells)) (UniProt P62805)
[20] = target: HEK-293T mononucleosomes with histone H4(4to17)K5ac1K8ac1K16ac1me0 (mammalian (HEK-293T cells)) (UniProt P62805)
[21] = target: HEK-293T mononucleosomes with histone H3K4me1 (mammalian (HEK-293T cells)) (UniProt P68431)
[22] = target: HEK-293T mononucleosomes with histone H3K4ac1 (mammalian (HEK-293T cells)) (UniProt P68431)
[23] = target: HEK-293T mononucleosomes with histone H3K9me3S10ph1K14ac0 (mammalian (HEK-293T cells)) (UniProt P68431)
[24] = target: HEK-293T mononucleosomes with histone H4(20to23)K20me2 (mammalian (HEK-293T cells)) (UniProt P62805)

- log2 (Light/Heavy) ratio normalized to average of pull down input controls [1]: -0.25 log2
- log2 (Light/Heavy) ratio normalized to average of pull down input controls [2]: -0.436 log2
- log2 (Light/Heavy) ratio normalized to average of pull down input controls [3]: -0.295 log2
- log2 (Light/Heavy) ratio normalized to average of pull down input controls [4]: -0.599 log2
- log2 (Light/Heavy) ratio normalized to average of pull down input controls [5]: 1.15 log2
- log2 (Light/Heavy) ratio normalized to average of pull down input controls [6]: 1.3 log2
- log2 (Light/Heavy) ratio normalized to average of pull down input controls [7]: -0.204 log2
- log2 (Light/Heavy) ratio normalized to average of pull down input controls [8]: -0.34 log2
- log2 (Light/Heavy) ratio normalized to average of pull down input controls [9]: -0.247 log2
- log2 (Light/Heavy) ratio normalized to average of pull down input controls [10]: 0.514 log2
- log2 (Light/Heavy) ratio normalized to average of pull down input controls [11]: -1.16 log2
- log2 (Light/Heavy) ratio normalized to average of pull down input controls [12]: 0.29 log2
- log2 (Light/Heavy) ratio normalized to average of pull down input controls [13]: 0.05 log2
- log2 (Light/Heavy) ratio normalized to average of pull down input controls [14]: -0.412 log2
- log2 (Light/Heavy) ratio normalized to average of pull down input controls [15]: -0.694 log2
- log2 (Light/Heavy) ratio normalized to average of pull down input controls [16]: -0.291 log2
- log2 (Light/Heavy) ratio normalized to average of pull down input controls [17]: 0.065 log2
- log2 (Light/Heavy) ratio normalized to average of pull down input controls [18]: 0.211 log2
- log2 (Light/Heavy) ratio normalized to average of pull down input controls [19]: -0.156 log2
- log2 (Light/Heavy) ratio normalized to average of pull down input controls [20]: -0.375 log2
- log2 (Light/Heavy) ratio normalized to average of pull down input controls [21]: 0.29 log2
- log2 (Light/Heavy) ratio normalized to average of pull down input controls [22]: -0.312 log2
- log2 (Light/Heavy) ratio normalized to average of pull down input controls [23]: 0.221 log2
- log2 (Light/Heavy) ratio normalized to average of pull down input controls [24]: 0.024 log2
Substance: MBP-SSX1 (78aa) (from UniProt P0AEX9 27-392)

— patent publication US20250283871A1, “COMPOSITIONS AND METHODS FOR MODULATING THE INTERACTION BETWEEN SS18-SSX FUSION ONCOPROTEIN AND NUCLEOSOMES” (Dana-Farber Cancer Institute, Inc., priority 2020, published 2025)
